Test results published in patent US20090299044A1 (priority 2006, published 2009).

Amino acid sequences for entries named in this document (tags omitted).
UniProt Q09470, whole entry: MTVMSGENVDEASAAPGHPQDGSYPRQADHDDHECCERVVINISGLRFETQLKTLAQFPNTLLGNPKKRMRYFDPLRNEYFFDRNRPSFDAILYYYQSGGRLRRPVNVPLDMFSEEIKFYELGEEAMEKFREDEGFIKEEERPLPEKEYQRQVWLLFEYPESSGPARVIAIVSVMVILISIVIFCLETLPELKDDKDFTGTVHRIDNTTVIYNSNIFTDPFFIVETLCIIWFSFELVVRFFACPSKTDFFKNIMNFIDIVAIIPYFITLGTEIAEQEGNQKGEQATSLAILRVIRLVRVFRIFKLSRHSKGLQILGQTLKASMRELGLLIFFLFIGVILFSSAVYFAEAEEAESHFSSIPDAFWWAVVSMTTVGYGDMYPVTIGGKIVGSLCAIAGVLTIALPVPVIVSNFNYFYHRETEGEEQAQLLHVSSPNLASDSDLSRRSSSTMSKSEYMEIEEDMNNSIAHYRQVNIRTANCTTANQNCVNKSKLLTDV
UniProt P22001, whole entry: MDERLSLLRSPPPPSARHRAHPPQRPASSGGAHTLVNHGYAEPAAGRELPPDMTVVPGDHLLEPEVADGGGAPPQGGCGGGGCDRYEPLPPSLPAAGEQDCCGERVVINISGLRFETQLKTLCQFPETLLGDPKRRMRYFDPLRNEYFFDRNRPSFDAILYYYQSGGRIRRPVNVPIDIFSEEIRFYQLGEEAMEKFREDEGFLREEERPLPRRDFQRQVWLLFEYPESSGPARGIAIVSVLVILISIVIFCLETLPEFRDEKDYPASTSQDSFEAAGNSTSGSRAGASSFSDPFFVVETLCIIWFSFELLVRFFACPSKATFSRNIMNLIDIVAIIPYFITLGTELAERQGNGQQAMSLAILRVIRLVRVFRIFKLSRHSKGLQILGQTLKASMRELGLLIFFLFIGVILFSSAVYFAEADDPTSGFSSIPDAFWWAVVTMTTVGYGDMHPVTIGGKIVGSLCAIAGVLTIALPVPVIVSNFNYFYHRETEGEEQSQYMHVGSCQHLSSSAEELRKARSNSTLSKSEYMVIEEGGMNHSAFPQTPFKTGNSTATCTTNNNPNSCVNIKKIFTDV

Key:
Assay in all cases: cell-based
human Kv1.1 = human Kv1.1 (Homo sapiens, UniProt Q09470); parameters: expressed in transfected cells; host or cells: HEK293
human Kv1.3 channel = human Kv1.3 channel (Homo sapiens, UniProt P22001)
human Kv1.3 (CHO) = target: T1, human Kv1.3 (CHO) (Homo sapiens, UniProt P22001)
T1 construct: expressed in transfected cells; host or cells: CHO

human Kv1.1 (HEK293) = target: T2, human Kv1.1 (HEK293) (Homo sapiens, UniProt Q09470)
T2 construct: expressed in transfected cells; host or cells: HEK293

Row | SMILES | IC50 (human Kv1.1; Kv1.1 (IC50, pM)) [pM] | IC50 (human Kv1.3 channel) [nM] | IC50 (human Kv1.3 (CHO)) [nM] | IC50 (human Kv1.1 (HEK293)) [nM] | IC50 (human Kv1.1; hKv1.1: IC50) [pM]
1 | CC[C@H](C)[C@@H]1NC(=O)[C@H](CCCCN)NC(=O)[C@@H](NC(=O)[C@H](CCCCN)NC(=O)[C@@H](NC(=O)[C@H](CC(N)=O)NC(=O)[C@@H](NC(=O)[C@@H](NC(=O)[C@@H](NC(=O)CN)C(C)C)[C@@H](C)CC)[C@@H](C)CC)C(C)C)CSSC[C@@H]2NC(=O)[C@H](CCCCN)NC(=O)CNC(=O)[C@H](Cc3ccccc3)NC(=O)[C@H](CCCNC(=N)N)NC(=O)[C@H](CCSC)NC(=O)CNC(=O)[C@H](C)NC(=O)[C@H](CCCCN)NC(=O)[C@H](CCCCN)NC(=O)[C@@H]3CSSC[C@@H](C(=O)N[C@H](C(=O)N4CCC[C@H]4C(=O)N[C@@H](CCCCN)C(=O)O)[C@@H](C)O)NC(=O)[C@H](Cc4c[nH]cn4)NC(=O)[C@H](CSSC[C@H](NC(=O)[C@H](CCC(N)=O)NC(=O)[C@H](CCCNC(=N)N)NC(=O)[C@H](CO)NC1=O)C(=O)N[C@@H](CC(C)C)C(=O)N[C@@H](CCC(=O)O)C(=O)N1CCC[C@H]1C(=O)N3)NC(=O)[C@H](CCCCN)NC(=O)CNC(=O)[C@H](CC(N)=O)NC(=O)[C@H](CCSC)NC2=O [wild-type] | 202 |  |  |  | 
2 | CC[C@H](C)[C@@H]1NC(=O)[C@H](CCCCN)NC(=O)[C@@H](NC(=O)[C@H](CCCCN)NC(=O)[C@@H](NC(=O)[C@H](CC(N)=O)NC(=O)[C@@H](NC(=O)[C@@H](NC(=O)[C@@H](NC(=O)CN)C(C)C)[C@@H](C)CC)[C@@H](C)CC)C(C)C)CSSC[C@@H]2NC(=O)[C@H](CCCCN)NC(=O)CNC(=O)[C@H](Cc3ccccc3)NC(=O)[C@H](CCCNC(=N)N)NC(=O)[C@H](CCSC)NC(=O)CNC(=O)[C@H](C)NC(=O)[C@H](CCCCN)NC(=O)[C@H](CCCCN)NC(=O)[C@@H]3CSSC[C@@H](C(=O)N[C@H](C(=O)N4CCC[C@H]4C(=O)N[C@@H](CCCCN)C(=O)O)[C@@H](C)O)NC(=O)[C@H](Cc4c[nH]cn4)NC(=O)[C@H](CSSC[C@H](NC(=O)[C@H](CCC(N)=O)NC(=O)[C@H](CCCNC(=N)N)NC(=O)[C@H](Cc4cccc5ccccc45)NC1=O)C(=O)N[C@@H](CC(C)C)C(=O)N[C@@H](CCC(=O)O)C(=O)N1CCC[C@H]1C(=O)N3)NC(=O)[C@H](CCCCN)NC(=O)CNC(=O)[C@H](CC(N)=O)NC(=O)[C@H](CCSC)NC2=O [S11Nal] | 85300 | 1.49 | 0.0959 | > 3.33 | 
3 | CC[C@H](C)[C@@H]1NC(=O)[C@H](CCCCN)NC(=O)[C@@H](NC(=O)[C@H](CCCCN)NC(=O)[C@@H](NC(=O)[C@H](CC(N)=O)NC(=O)[C@@H](NC(=O)[C@@H](NC(=O)[C@@H](NC(=O)CN)C(C)C)[C@@H](C)CC)[C@@H](C)CC)C(C)C)CSSC[C@@H]2NC(=O)[C@H](CCCCN)NC(=O)CNC(=O)[C@H](Cc3ccccc3)NC(=O)[C@H](CCCNC(=N)N)NC(=O)[C@H](CCSC)NC(=O)CNC(=O)[C@H](C)NC(=O)[C@H](CCCCN)NC(=O)[C@H](CCCCN)NC(=O)[C@@H]3CSSC[C@@H](C(=O)N[C@H](C(=O)N4CCC[C@H]4C(=O)N[C@@H](CCCCN)C(=O)O)[C@@H](C)O)NC(=O)[C@H](Cc4c[nH]cn4)NC(=O)[C@H](CSSC[C@H](NC(=O)[C@H](CCC(N)=O)NC(=O)[C@H](CCCNC(=N)N)NC(=O)[C@H](CO)NC1=O)C(=O)N[C@@H](CC(C)C)C(=O)N[C@@H](CCC(=O)O)C(=O)N1CCC[C@H]1C(=O)N3)NC(=O)[C@H](CCCCN)NC(=O)CNC(=O)[C@H](CC(N)=O)NC(=O)[C@H](CCSC)NC2=O [OSK1, reference compound] |  |  |  |  | 160
